Protein sequences, listed by entry. Tags and fused reporters are not part of them. Residues count along the entry.
UniProt P21836, 32-614 Y368A: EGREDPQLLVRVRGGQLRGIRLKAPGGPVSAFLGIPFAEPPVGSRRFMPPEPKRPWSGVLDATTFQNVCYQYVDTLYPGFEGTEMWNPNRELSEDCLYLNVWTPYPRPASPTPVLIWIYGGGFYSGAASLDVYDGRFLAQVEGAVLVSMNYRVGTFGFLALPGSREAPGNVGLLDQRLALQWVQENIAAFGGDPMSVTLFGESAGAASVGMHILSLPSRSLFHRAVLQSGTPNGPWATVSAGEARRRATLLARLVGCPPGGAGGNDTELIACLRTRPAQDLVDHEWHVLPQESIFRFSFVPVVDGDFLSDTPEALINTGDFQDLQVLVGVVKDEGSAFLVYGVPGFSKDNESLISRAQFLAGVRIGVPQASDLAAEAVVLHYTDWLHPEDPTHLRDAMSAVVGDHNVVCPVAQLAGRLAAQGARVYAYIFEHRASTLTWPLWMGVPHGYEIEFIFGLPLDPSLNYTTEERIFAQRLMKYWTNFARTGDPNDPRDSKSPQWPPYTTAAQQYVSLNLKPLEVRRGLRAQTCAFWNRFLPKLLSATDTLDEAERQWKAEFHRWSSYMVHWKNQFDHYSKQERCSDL

According to publication PMC3016896 (Journal of the American Chemical Society, 2010):

Biological target: mAChE mutant Tyr337Ala (Mus musculus, UniProt P21836, Y368A)
Conditions: for lower dissociation rate for Tyr337Ala compared with T. californica AChE: Tyr337Ala vs T. californica AChE (Phe for Tyr337); for lower dissociation rate for Tyr337Ala compared to mAChE: Tyr337Ala vs mAChE

Structure (SMILES): Nc1ccc2c(c1)c(-c1ccccc1)[n+](CCCCCCc1cn(CCNc3c4c(nc5ccccc35)CCCC4)nn1)c1cc(N)ccc21 [anti1, 3,8-diamino-6-phenyl-5-[6-[1-[2-[(1,2,3,4-tetrahydro-9-acridinyl)amino]ethyl]-1H-1,2,3-triazol-4anti-yl]hexyl]-phenanthridinium]
- lower dissociation rate for Tyr337Ala compared with T. californica AChE: 350 fold
- lower dissociation rate for Tyr337Ala compared to mAChE: 3000 fold

Structure (SMILES): Nc1ccc2c(c1)c(-c1ccccc1)[n+](CCCCCCc1cnnn1CCNc1c3c(nc4ccccc14)CCCC3)c1cc(N)ccc21 [syn1, 3,8-diamino-6-phenyl-5-[6-[1-[2-[(1,2,3,4-tetrahydro-9-acridinyl)amino]ethyl]-1H-1,2,3-triazol-5syn-yl]hexyl]-phenanthridinium]
- greater affinity of the syn1 isomer compared with the anti1 isomer (Tyr337Ala mutant, syn1 vs anti1): 4 fold
- lower dissociation rate for Tyr337Ala compared with T. californica AChE: 85 fold
- lower dissociation rate for Tyr337Ala compared to mAChE: 550 fold
